Patent US20170258722A1, “ENCAPSULATING LIPOSOMES” (priority 2012, published 2017)

For `CN1CC[C@]23c4c5ccc(O)c4O[C@H]2C(=O)CC[C@H]3[C@H]1C5` [Hydromorphone, hydromorphone], the “in vitro leakage, liposomes loaded using 240 mM ammonium sulfate versus passive aqueous capture of hydromorphone hydrochloride” value (FIG. 1, drug present in liposomes as the sulfate salt) was “less”, the “in vitro leakage on increasing the concentration of ammonium sulfate inside the liposomes” value (FIG. 2, different concentrations of ammonium sulfate) was “not diminished” and the “time within which nearly all of the release occurred” value (acid loaded liposomes, unbuffered saline, 22° C.) was at most 24 h.
